This is an account of results in US4382920A, “Hormone-like peptides and use thereof” (Perignon Investments Ltd., priority 1980, dated 1983).

This experiment in a line: Body temperature of mice after intravenous injection. The class given is in vivo. The procedure:
Type: Out-breed, white NMRI
Average body weight: 24-27 gm
Diet: Standard food pellet
Mice fasted 12-15 hrs. prior to testing (water given during this period)
Mice all separated from one another
Mice kept in quiet and dark environment
Testing time: 1 p.m.-3 p.m. each day
Test solution is prepared by:
(b) dissolving a known amount of the refined brain extract in 0.4 ml of trishydrochloric buffer and adjusting the pH of the solution to from about 7.0 to about 7.4 by titrating with microdrops of 1 M or 0.1 M sodium hydroxide solution.
Volume of solution injected into mice:
Solution is at room temperature when injected into mice.
Mouse is placed in restrainer
Injection is made in the tail vein
Injection time: 2 minutes
Body temperature is measured by inserting a thermistor into the anal cavity to a depth of 11/2 cm (thermistor is made by Thermovit, Fu. Armatherm, Lemgo, W. Germany)
Temperature measurements are begun immediately after injection, i.e., 2 minutes after injection started
The extract obtained from the brain of 40 lungfish is used. Five mice are used in obtaining the data on the aroused lungfish and nine mice are used for the data on the estivating lungfish.

Molecules are shown by their SMILES. Where two headings read alike, the source gives them in different places.

Take `CC(=O)[O-].[Na+]` [1.0 M SODIUM ACETATE, SODIUM ACETATE]: the “body temperature at 2 min” value worked out at 36.5. For the same compound, the “body temperature at 2 min” value (listed as 3.0 M SODIUM ACETATE) came out at 36.0.
